By UniProt entry, the sequences of proteins in these tests, tags left out. Residues count along the entry.
UniProt Q9NYK1, 27-1049 limits assumed: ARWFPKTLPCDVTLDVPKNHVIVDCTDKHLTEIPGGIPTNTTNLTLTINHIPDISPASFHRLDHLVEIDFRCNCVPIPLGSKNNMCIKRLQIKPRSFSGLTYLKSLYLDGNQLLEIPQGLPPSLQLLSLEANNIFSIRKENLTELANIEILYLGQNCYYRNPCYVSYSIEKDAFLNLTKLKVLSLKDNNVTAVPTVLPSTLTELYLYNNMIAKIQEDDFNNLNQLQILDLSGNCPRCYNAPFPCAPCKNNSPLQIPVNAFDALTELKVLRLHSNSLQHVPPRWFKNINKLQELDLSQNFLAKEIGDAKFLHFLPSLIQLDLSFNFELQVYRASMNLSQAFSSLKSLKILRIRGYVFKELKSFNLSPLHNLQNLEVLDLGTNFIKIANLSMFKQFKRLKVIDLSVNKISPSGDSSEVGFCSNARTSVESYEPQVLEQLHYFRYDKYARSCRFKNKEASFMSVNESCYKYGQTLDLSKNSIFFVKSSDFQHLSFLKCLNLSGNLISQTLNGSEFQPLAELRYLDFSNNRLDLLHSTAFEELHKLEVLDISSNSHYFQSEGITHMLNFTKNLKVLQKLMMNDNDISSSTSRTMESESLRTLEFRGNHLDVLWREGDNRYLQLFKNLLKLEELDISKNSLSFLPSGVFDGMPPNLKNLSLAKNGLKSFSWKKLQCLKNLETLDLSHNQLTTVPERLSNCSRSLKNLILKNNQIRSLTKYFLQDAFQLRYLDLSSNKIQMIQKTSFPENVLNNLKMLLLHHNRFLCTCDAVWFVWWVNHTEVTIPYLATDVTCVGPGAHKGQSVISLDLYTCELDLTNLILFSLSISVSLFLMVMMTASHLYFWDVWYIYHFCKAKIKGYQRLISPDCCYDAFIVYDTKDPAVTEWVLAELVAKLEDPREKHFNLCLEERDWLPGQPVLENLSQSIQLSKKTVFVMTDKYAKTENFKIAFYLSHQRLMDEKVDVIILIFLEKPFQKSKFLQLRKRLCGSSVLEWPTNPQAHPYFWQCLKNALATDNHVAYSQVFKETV

In patent US20090105212A1, “NOVEL ADENINE COMPOUND” (priority 2005, published 2009):

Target: Human TLR7 (Homo sapiens, UniProt Q9NYK1)
Assay: Human TLR7 reporter assay (NF-kB-SEAP, HEK293 cells)
Settings: read-out: human TLR7 binding activity (EC50); hTLR7/seap-293 cells (HEK293, NF-kB-SEAP reporter), 20 hours incubation, 1 nM-10 μM, absorbance 405 nm
Method: Human TLR7 Reporter Assay
Human TLR7 or rat TLR7 plasmid and reporter plasmid (NF-kB-SEAP) stably-induced HEK293 cells were suspended in DMEM media (10% […], 1% NEAA, 10 ug/mL blastocidin S HCl, 100 ug/mL Zeocin), and the suspension was seeded in 90 μl/well on 96 well plate (hTLR7/seap-293:20000 cells/well, rTLR7/seap-293:25000 cells/well).
To the cells seeded on 96 well plate was added in 10 μl/well a test compound wherein DMSO stock solution (2 μl) was hundredfold diluted with medium (200 μl) (final concentration; 1 nM-10 μM, common ratio 3). The mixture was stirred tapping in the side of the plate, and then incubated for 20 hours in CO2 incubator. To the cells stimulated by a test compound was added a substrate for reporter assay (substrate for SEAP, pNPP) by 50 μl/well. 10 minutes after the addition of substrate, a quenching solution (4N NaOH) was added by 50 μl/well, and the enzymatic reaction was quenched. Top seal A was attached on the plate, and absorbance was measured by microplate reader (405 nm).

EC50: 30 nM
Compound: CCCCOc1nc(N)c2[nH]c(=O)n(Cc3ccc(OCCCCN4CCC(C(=O)O)CC4)cc3)c2n1
